# In patent US20250235547A1, “ANTIBODY-DRUG CONJUGATE” (UBE Corporation, priority 2022, published 2025):
# What was measured:
# [1] = Pharmacokinetic test (serum trastuzumab residual rate); assay type: in vivo; conditions: female BALB/c mouse, intravenous; 3 days vs 5 minutes after administration
# Description: After a prescribed time period, the blood was collected from the jugular vein or abdominal vein, and centrifuged to prepare a serum. The resulting serum was cryopreserved until the measurement.
# [2] = test system: HER2-positive human gastric cancer cell line (NCI-N87); assay: Growth inhibition test of HER2-positive human gastric cancer cell line (NCI-N87); assay type: cell-based; conditions: NCI-N87, treatment concentration 100 ng/mL, 6 days
# Procedure: NCI-N87 is generally used as a HER2-overexpressing cell line (Clin Cancer Res; 22(20) Oct. 15, 2016). NCI-N87 (ATCC, CRL-5822) was cultured in RPMI 1640 Medium (ATCC Modification)(manufactured by Thermo Fisher Scientific, A10491-01) containing 10% fetal bovine serum (manufactured by Corning Inc., 35-011-CV) and 1% penicillin/streptomycin (manufactured by Thermo Fisher Scientific, 15140-122). The cells were seeded to a 96 well plate (manufactured by Corning Inc., 353377) at 1.0×10^3 cells/100 μL/well. […] The cells were cultured under 5% CO2 at 37° C. for 6 days, then CellTiter-Glo (manufactured by Promega, G9241) was added thereto at 100 μL/well, and a microplate reader (FlexStation 3, manufactured by Molecular Device, LLC) was used to measure the luminescence amount of each well.
# The growth inhibition rate (%) was calculated by the following equation.
# [formula] • a: average luminescence amount in vehicle-treated well (n=3) • b: average luminescence amount in test compound-treated well (n=3) • c: average luminescence amount before test compound treatment (n=3)
substance,measurement,setting,value
Trastuzumab,Serum trastuzumab residual rate after 3 days from administration (%),[1],21 to 33%
same,Cell growth inhibitory activity (growth inhibition rate),[2],14 to 35%
